Entries after “also recorded” stand apart in the source; their conditions may differ.
Target: T1, trypsin-like enzyme (Homo sapiens, UniProt O60235)
T1 construct: from tissue; host or cells: cough phlegm (sputum) of patients with chronic disease of the respiratory tract
T1 sequence (O60235 187-418): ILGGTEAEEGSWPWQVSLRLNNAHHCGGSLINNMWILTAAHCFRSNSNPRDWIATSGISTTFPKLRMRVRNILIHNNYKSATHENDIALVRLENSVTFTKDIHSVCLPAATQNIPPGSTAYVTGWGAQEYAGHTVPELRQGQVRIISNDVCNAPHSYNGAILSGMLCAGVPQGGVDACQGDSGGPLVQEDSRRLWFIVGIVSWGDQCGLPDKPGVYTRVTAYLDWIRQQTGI
Experiment: Digestion of natural substrates detected by SDS-polyacrylamide gel electrophoresis
Format: biochemical

Substance: albumin: natural substrate
- Digestion of natural substrate by trypsin-like enzyme: not digested; also recorded: does not digest

— US5804410A, “Nucleic acid sequence encoding trypsin-like enzyme and process for producing the enzyme” (Teijin Limited, priority 1994, dated 1998)
